PLK1 PBD block – blocks phosphopeptide binding to human PLK1 polo-box domain; P53350; Plk1 PBD binding of FITC phosphopeptide, fluorescence polarization; Potency, µM, without a hit: max response, negative = inhibition, actives largely listed as inhibitors; 360,000 tested, 2.8% active; further: potency means the concentration at half of the fitted maximal effect; series mostly up to about 57 µM; on the % scale 0 is the no-effect control and ±100 the full control effect; nearly all actives have a fitted effect of over 65% in size
Rango complex inh – prevents formation of the Rango-importin beta complex; Q14974; 340,000 tested, 0.031% active; Potency, µM (doses to about 92.2 µM), without a hit: top-dose inhibition of complex formation; Rango CFP/YFP FRET sensor + importin beta, 45 min; calls by dose curve;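 further: potency means the concentration at half of the fitted maximal effect; 0% = DMSO wells and 100% = buffer wells lacking importin beta; nearly all actives have a fitted effect of over 15% in size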
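FRET biosensor (snurportin 1 IBB flanked by EYFP and cerulean), 50 nM, with compound 5 min, then 0.125 microM importin beta in PBS, 1 mM DTT, 0.02% Tween-20, 0.1% BSA. CFP/YFP ratio read after 45 min at room temperature; pre-read flags interference.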
PI5P4K alpha inh – inhibitors of human PI5P4K alpha; P48426; PI5P4Kalpha enzyme, ADP-Glo luminescence, 60 min; active compounds read low; max response, %; 330,000 tested, 1.2% active; AID 652105; active means max response of -50% or lower; inconclusive means between -30% and -50%; inactive means -30% or higher; further: value at the top dose of about 77 µM; on the % scale 0 is the no-effect control and ±100 the full control effect
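Quantitative HTS of the MLSMR library against PI5P4Kalpha with substrate. ATP added last at 5 microM final; room temperature, 60 minutes. Remaining ATP depleted, ADP converted and read as luminescence.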
Rango dissoc inh – inhibitors of RanGTP-induced Rango-importin beta complex dissociation | Biochemical FRET Rango-importin beta, RanGTP-induced dissociation | AID 540253 | O95149+P62826 | 340,000 tested, 0.071% active | Potency, µM (doses to about 46.1 µM), for the others: at the top dose activity change, negative = inhibition; calls by dose curve; further: potency means the concentration at half of the fitted maximal effect; % of control where 0% means no effect; nearly all actives have a fitted effect of over 45% in size
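FRET read at 45 min, room temperature: inhibitors block the CFP/YFP signal rise when RanGTP (0.6 uM Ran, 2 mM GTP, 0.2 uM RCC1) frees Rango (0.1 uM) from importin beta (0.25 uM). Pre-read after 5 min compound exposure flags interference.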
KAT2A inh – GCN5L2 (KAT2A) acetyltransferase inhibition | Q92830 | GCN5L2 HAT assay, ThioGlo1 CoA-SH fluorescence | Potency, µM (series often up to 58.9 µM), inactives show top-dose activity change, negative = inhibition, most hits filed as inhibitors | 390,000 tested, 0.21% active; further: potency means the concentration at half of the fitted maximal effect; on the % scale 0 is the no-effect control and ±100 the full control effect
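Compounds, pin-transferred from DMSO stocks, meet 20nM GCN5L2 for 15 min before the reaction begins with H3(1-25) peptide (75uM) and acetyl-CoA (70uM). Thiol-reactive ThioGlo1 reports CoA release over 20 min at room temperature.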
VDR inhibitor – vitamin D3 receptor (human) inhibition; AID 504847; P11473; VDR-SRC2-3 peptide fluorescence polarization, 2 h; Potency, µM, for inactives: max response, negative = inhibition, hits mostly inhibitors; 400,000 tested, 0.93% active; further: potency means the concentration at half of the fitted maximal effect; on the % scale 0 is the no-effect control and ±100 the full control effect
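Fluorescence polarization assay measuring small-molecule disruption of VDR binding to the coregulator peptide SRC2-3. Compounds were pin-transferred (23 nl) into the reagent mix and incubated 2 h at room temperature before reading.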
* = called active by the depositor; ? = inconclusive; · = not tested or not shown; ! = not active in a repeat. Compounds with a hit are over-represented: about 3.6% of the library has one in this group of screens. Unless noted, the call rests on the fitted dose curve; in most records, active means well fitted curve in the direction sought with a large enough effect; inconclusive means small, poorly fitted or top-dose-only effect, or another doubt; inactive means no such curve, though single readings can be large; an effect the other way counts as inactive or inconclusive.

Codes – A = PLK1 PBD block; B = Rango complex inh; C = PI5P4K alpha inh; D = Rango dissoc inh; E = KAT2A inh; F = VDR inhibitor
> c1ccc(-c2nnc(-c3ccco3)o2)cc1
  A: -1%; B: -2%; C: 0; D: -5%; E: -5%; F: 7%
> Cc1c2oc3c(C)ccc(C(=O)N[C@@H]4C(=O)N[C@H](C(C)C)C(=O)N5CCC[C@H]5C(=O)N(C)CC(=O)N(C)[C@@H](C(C)C)C(=O)O[C@@H]4C)c3nc-2c(C(=O)N[C@@H]2C(=O)N[C@H](C(C)C)C(=O)N3CCC[C@H]3C(=O)N(C)CC(=O)N(C)[C@@H](C(C)C)C(=O)O[C@@H]2C)c(N)c1=O
  A: ·; B: ·; C: ·; D: ·; E: -6%; F: 45µM*!
> Cn1c(NCc2ccccc2F)nc2ccccc21
  A: ·; B: ·; C: ·; D: ·; E: -2%; F: 3%
> COCC(C)NCc1ccccc1C (stereo unspecified)
  A: 0%; B: 18µM*; C: 3; D: 21%; E: -3%; F: 5%
> CCCn1c(N)c(C(c2ccc(C(=O)OC)cc2)N2CCN(c3ccccc3)CC2)c(=O)[nH]c1=O (stereo unspecified)
  A: -1%; B: -1%; C: ·; D: 6%; E: 20%; F: -2%
> CCCn1c(N)c(C(c2ccc(OC)cc2)N2CCN(c3ccccc3)CC2)c(=O)[nH]c1=O (stereo unspecified)
  A: -25%; B: 2%; C: 0; D: 18%; E: -13%; F: 56µM*
> Cc1cccc[n+]1CC(=O)c1ccc(Cl)cc1
  A: -3%; B: 1%; C: 0; D: 0%; E: ·; F: -10%
> Cc1cccc[n+]1CC(=O)c1ccc2c(c1)OCCO2
  A: 27µM*; B: 0%; C: -20; D: -6%; E: 20%; F: -22%
> O=C(Cc1cccc2ccccc12)NN1C(=O)CSC1=S
  A: -18%; B: -3%; C: -6; D: -3%; E: -2%; F: 9%
> O=C(NN1C(=O)CSC1=S)C(=O)NN1C(=O)CSC1=S
  A: -27%; B: 1%; C: -67*; D: -4%; E: -4%; F: 9%
> Cc1nc(C(=O)NNC(=O)c2ccc(Cl)cc2)cs1
  A: -2%; B: -4%; C: -2; D: 11%; E: 0%; F: 3%
> Cc1nc(/C(=N/O)C(N)=O)cs1
  A: 24µM*; B: 1%; C: 1; D: 33%; E: 0%; F: -7%
> COc1ccc(S(=O)(=O)N2CCC(C(=O)N[C@@H](C)C(=O)NC3CCCC3)CC2)cc1
  A: 19µM*; B: ?; C: -22; D: -9%; E: -4%; F: ?
> COc1ccc(NC(=O)CCNC(=O)C2CCN(S(=O)(=O)c3ccc(OC)cc3)CC2)cc1
  A: -3%; B: 0%; C: -5; D: 25%; E: -7%; F: 8%
> COc1ccc(S(=O)(=O)N2CCC(C(=O)N3CCCCCC3)CC2)cc1
  A: 11µM*; B: -1%; C: -24; D: -10%; E: -9%; F: -10%
> COc1ccc(N2CCN(C(=O)C3CCN(S(=O)(=O)c4cccs4)CC3)CC2)cc1
  A: 17µM*; B: -2%; C: -29; D: 3%; E: -6%; F: ?
> COc1ccc(S(=O)(=O)N2CCC(C(=O)NCCC(=O)Nc3cccc(Cl)c3)CC2)cc1
  A: 6.7µM*; B: 4%; C: ?; D: 9%; E: -1%; F: 28µM*
> O=C(C1CCN(S(=O)(=O)c2cccs2)CC1)N1CCN(c2ccccc2)CC1
  A: -5%; B: -1%; C: 3; D: 5%; E: -7%; F: 4%
> Cc1ccc(S(=O)(=O)N2CCC(C(=O)N[C@@H](C)C(=O)NC3CCCCC3)CC2)cc1
  A: -8%; B: 4%; C: 2; D: -5%; E: -4%; F: -22%
> N#Cc1nc(-c2ccc(OCc3ccccc3Cl)cc2)oc1N1CCCCCC1
  A: ·; B: ·; C: ·; D: ·; E: ·; F: -4%
> COc1ccc(S(=O)(=O)N2CCN(C(=S)NCCc3ccccc3)CC2)cc1
  A: 4%; B: -2%; C: -4; D: -3%; E: 0%; F: -1%
> COCCCNC(=S)N1CCN(S(=O)(=O)c2ccc(OC)cc2)CC1
  A: 21µM*; B: 8%; C: 9; D: 0%; E: -2%; F: -5%
> Fc1ccccc1-n1ncc2c1ncn1nc(-c3ccccc3Cl)nc21
  A: ·; B: ·; C: ·; D: ·; E: -1%; F: 3%
> CCOC(=O)C1CCN(C(=O)c2ccccc2NC(=O)c2nsc3ccccc23)CC1
  A: ·; B: ·; C: ·; D: ·; E: -10%; F: 1%
> CCOC(=O)C1CCN(C(=O)c2ccccc2NC(=O)c2ccc(Cl)cc2)CC1
  A: 15µM*; B: 0%; C: -9; D: 1%; E: 4%; F: ?
> CCOC(=O)C1CCN(CCC(=O)Nc2ccccc2Cl)CC1
  A: 24µM*; B: -1%; C: -8; D: 1%; E: 12%; F: 3%
> Cc1ccccc1C(=O)N1CCC(C(=O)N2CCN(c3ncccn3)CC2)CC1
  A: -2%; B: -7%; C: 1; D: -20%; E: -5%; F: 6%
> CCOC(=O)N1CCN(C(=O)C2CCN(C(=O)c3ccccc3C)CC2)CC1
  A: 3.4µM*; B: 1%; C: -79*; D: -13%; E: ·; F: 22µM*
> O=S(=O)(Nc1cccc2cccnc12)c1cccs1
  A: ·; B: ·; C: ·; D: ·; E: ·; F: 3%
> CCc1ccc(NC(=O)N(Cc2ccc(C)cc2)Cc2cccn2-c2nnc(N3CCCC3=O)s2)cc1
  A: ·; B: ·; C: ·; D: ·; E: -6%; F: 5%

Record cards, from the list above. Values in the order: PLK1 PBD block | Rango complex inh | PI5P4K alpha inh | Rango dissoc inh | KAT2A inh | VDR inhibitor
Listed for CCOC(=O)N1CCN(C(=O)C2CCN(C(=O)c3ccccc3C)CC2)CC1 → 3.4µM* | 1% | -79* | -13% | · | 22µM*
Listed for Cc1ccccc1C(=O)N1CCC(C(=O)N2CCN(c3ncccn3)CC2)CC1 → -2% | -7% | 1 | -20% | -5% | 6%
Listed for COCCCNC(=S)N1CCN(S(=O)(=O)c2ccc(OC)cc2)CC1 → 21µM* | 8% | 9 | 0% | -2% | -5%
Listed for CCOC(=O)C1CCN(CCC(=O)Nc2ccccc2Cl)CC1 → 24µM* | -1% | -8 | 1% | 12% | 3%

More entries.
Codes – A = PLK1 PBD block; B = Rango complex inh; C = PI5P4K alpha inh; D = Rango dissoc inh; E = KAT2A inh; F = VDR inhibitor
> COc1c(OC(C)=O)ccc(/C=N\NC(=O)c2ccc(Br)cc2)c1[N+](=O)[O-]
  A: ?; B: -2%; C: -69*; D: -6%; E: -3%; F: ?
> CC(=O)Nc1ccc(OCCOc2ccc(/C=C3/C(=N)N4C=CSC4=NC3=O)cc2)cc1
  A: 3.4µM*; B: -6%; C: ?; D: -13%; E: -4%; F: ?
> O=c1oc(-c2ccc(O)c(O)c2)cc2cc(O)cc(O)c12
  A: -2%; B: ?; C: -66*; D: -15%; E: -15%; F: -7%
> Cc1ccccc1Oc1cc(-n2ncc(Cl)c(Cl)c2=O)ncn1
  A: 5.3µM*; B: ?; C: 2; D: -8%; E: 0%; F: ?
> CCOC(=O)C(Cc1ccc(NC(=O)/C(=C/c2ccc(OC(C)=O)cc2)NC(C)=O)cc1)N1C(=O)c2ccccc2C1=O (stereo unspecified)
  A: 27µM*; B: -5%; C: -4; D: 12%; E: -6%; F: 8%
> CN1CCN(C(=O)Nc2cccc(Cl)c2)c2cccnc21
  A: ·; B: ·; C: ·; D: ·; E: -10%; F: 3%
> Cc1cc(N2CCCC2)nc2ccc(NC(=S)NCCCN3CCC(C)CC3)cc12
  A: 3%; B: 3%; C: -3; D: 15µM*; E: -5%; F: -17%
> CC(=O)c1ccc(S(=O)(=O)NCC(=O)NC(c2nc3ccccc3[nH]2)C(C)C)cc1 (stereo unspecified)
  A: 19µM*; B: 1%; C: -21; D: 5%; E: -3%; F: ?
> CC(C)C(NC(=O)CCNC(=O)c1ccc(C(C)(C)C)cc1)c1nc2ccccc2[nH]1 (stereo unspecified)
  A: 4%; B: ?; C: 1; D: -4%; E: -5%; F: -1%
> O=C(O)CC1S/C(=N/N=C/c2ccc(-c3ccccc3[N+](=O)[O-])o2)NC1=O (stereo unspecified)
  A: -20%; B: 0%; C: ·; D: -24%; E: -17%; F: 79µM*
> CCCCN(Cc1ccccc1)C(=O)c1oc(=O)c2ccccc2c1-c1ccc(C)cc1
  A: ·; B: ·; C: ·; D: ·; E: -11%; F: -4%
> COc1ccc2c(c1)Cc1sc(NC(=O)c3ccccc3C)nc1-2
  A: ·; B: ·; C: ·; D: ·; E: -10%; F: 25µM*
> Cc1ccc(S(=O)(=O)NC(=O)O[C@@H]2C(=O)c3cc(Br)ccc3O[C@H]2c2ccc3c(c2)OCO3)cc1
  A: ·; B: ·; C: ·; D: ·; E: ·; F: 6%

Source: PubChem (National Center for Advancing Translational Sciences (NCATS))
